Test system: Grm1-mediated ERK1/2 activation
Test: ERK1/2 phosphorylation in melanoma cells, western blot with phospho-ERK1/2 antibodies
Assay type: cell-based, mouse
Details: preincubated 15 minutes with 10 μM PKC inhibitor before quisqualate
Experimental: To examine whether ERK1/2 were activated after Grm1 activation, cells were treated for the indicated times with the agonist Quisqualate. After treatment, melanoma cells were lysed and the activation of ERK1/2 was determined using antibodies against the phosphorylated forms of ERK1/2.
Melanoma cells lines were transiently transfected with dominant-negative mutants of Grm1 and expression of the Grm1 mutants was analyzed by western blot analysis.
Upon IP3 accumulation in cells, calcium is released from the endoplasmic reticulum to the cytoplasm, allowing these ions to act as second messengers that bind to calmodulin and further activate calcium-calmodulin-dependent kinases that are capable of activating mitogen-activated protein kinases (MAPKS) (Soderling (1999) Trends Biochem. Sci. 24(6):232-6). Accordingly, it was determined whether IP3 accumulation in the tumor cell lines disclosed herein, upon Grm1 agonist treatment, would yield intracellular calcium signaling that could affect ERK activation. […]
PIP2 hydrolysis resulting from Grm1 activation leads to the production of IP3 and DAG. […] Thus, it was determined whether the activation of ERK1/2 by Grm1 is also mediated by PKC in the tumor cell lines disclosed herein. […]

In the case of `CN[C@@H]1C[C@H]2O[C@@](C)([C@@H]1OC)n1c3ccccc3c3c4c(c5c6ccccc6n2c5c31)C(=O)NC4` [staurosporine], the “ERK phosphorylation after quisqualate treatment” value was “abrogation of ERK phosphorylation”.

From patent US7385103B2, “Animal model, cells, and treatment for malignant melanoma” (Rutgers, the State University, priority 2004, dated 2008)
